{"source": "patent US11919886B2", "about": "“4,9-dioxo-4,9-dihydronaphtho[2,3-B]furan-3-carboxamide derivatives and uses thereof for treating proliferative diseases and infectious diseases” (Academia Sinica, priority 2016, dated 2024)", "tested_on": "gefitinib-sensitive and gefitinib-resistant lung cancer cells", "assay": "SRB cytotoxicity assay, lung cancer cell lines overall", "data": [{"smiles": "Cc1oc2c(c1C(=O)NCCCn1ccnc1)C(=O)c1ccccc1C2=O", "note": "[Compound 1, N-(3-(1H-Imidazol-1-yl)propyl)-2-methyl-4,9-dioxo-4,9-dihydronaphtho [2,3-b]furan-3-carboxamide]", "values": [{"measurement": "IC50", "setting": "Homo sapiens, 72 h, read-out: IC50, inhibition of growth", "value": "< 300", "unit": "nM"}, {"measurement": "higher potency for cancer cells than normal cells", "setting": "cancer cells vs normal cells", "value": "≥ 3", "unit": "fold"}]}]}
